Literature values as cited in patent US7547760B2, “Peptides and chemical compound for inhibition of SHP2 function” (West Virginia University, priority 2006, dated 2009).

System: Tyr kinase domains of EGFR and HER2
Conditions: patients treated with standard chemotherapy in combination with Iressa

For `COc1cc2ncnc(Nc3ccc(F)c(Cl)c3)c2cc1OCCCN1CCOCC1` [Iressa, gefitinib], the “overall survival rates versus chemotherapy alone” value is listed as “did not show any significant increase in overall survival rates”.
